Sequences of proteins named here, by UniProt entry; tags and fusion partners are left off. Residues count along the entry.
UniProt P29597, 897-1176 limits assumed: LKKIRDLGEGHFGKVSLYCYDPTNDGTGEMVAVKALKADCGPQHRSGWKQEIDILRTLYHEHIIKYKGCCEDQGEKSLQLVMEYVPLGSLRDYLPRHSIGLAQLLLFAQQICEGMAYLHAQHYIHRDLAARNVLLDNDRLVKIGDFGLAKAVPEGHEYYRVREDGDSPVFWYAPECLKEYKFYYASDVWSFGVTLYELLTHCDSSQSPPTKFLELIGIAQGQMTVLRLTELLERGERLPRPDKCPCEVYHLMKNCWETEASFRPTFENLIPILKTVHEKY
UniProt Q9R117, 894-1166 limits assumed: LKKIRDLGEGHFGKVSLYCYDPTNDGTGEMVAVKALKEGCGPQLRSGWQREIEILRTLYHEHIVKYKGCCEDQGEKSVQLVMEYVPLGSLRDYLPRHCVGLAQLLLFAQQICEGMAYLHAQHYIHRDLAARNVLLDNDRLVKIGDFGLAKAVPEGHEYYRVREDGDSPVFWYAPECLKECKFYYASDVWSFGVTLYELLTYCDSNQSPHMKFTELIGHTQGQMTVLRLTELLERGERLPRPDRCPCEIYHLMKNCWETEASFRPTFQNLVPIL

In paper PMC7265552 (Scientific Reports, 2020):

Legend:
human WT TYK2 = human WT TYK2 (Homo sapiens, UniProt P29597); assay: JAK Caliper enzyme end-point IC50 assay, human WT TYK2; format: biochemical; settings: read-out: Human WT TYK2 IC50; ATP 1 mM; geometric mean ± SD
mouse WT TYK2 = mouse WT TYK2 (Mus musculus, UniProt Q9R117); assay: JAK Caliper enzyme end-point IC50 assay, mouse WT TYK2; format: biochemical; settings: read-out: Mouse WT TYK2 IC50; ATP 1 mM; geometric mean ± SD

Row | Compound | IC50 (human WT TYK2) [nM] | IC50 (mouse WT TYK2) [nM]
1 | CCNC(=O)c1ccc(Nc2nccc(N3CC4CC(C3)N4C(=O)C(C)(F)F)n2)cc1 | 66 | 1160
2 | C[C@@H]1[C@@H]2CN(c3nc(Nc4cn[nH]c4)ncc3F)C[C@]12NC(=O)[C@@H]1CC1(F)F | 33 | 1570
3 | CNC(=O)c1ncc(Nc2nccc(N3CC4CCC(C3)N4C(=O)[C@@H]3CC3(F)F)n2)cc1F | 27 | 459
4 | CCNC(=O)c1ncc(Nc2ncc(F)c(N3CC4CCC(C3)N4C(=O)C3CC3)n2)cc1C | 57 | 2390
5 | Cc1cc(Nc2ncc(F)c(N3C[C@H]4[C@@H](C)[C@@]4(NC(=O)[C@@H]4C[C@H]4C#N)C3)n2)cnc1CCO | 41 | 1260
6 | C[C@@H]1[C@@H]2CN(c3nc(Nc4cnn(C)c4)ncc3F)C[C@]12NC(=O)[C@@H]1C[C@H]1C#N |  | 1340
7 | Cn1cc(Nc2nccc(N3CC4CCC(C3)N4C3CC(C#N)C3)n2)cn1 (stereo not shown) | 47 | 781
8 | Cn1cc(Nc2nccc(N3CC4CCC(C3)N4C(=O)NCC(F)(F)F)n2)cn1 |  | 551
9 | Cn1cc(Nc2nccc(N3CC4CCC(C3)N4C(=O)NCCC#N)n2)cn1 | 60 | 935

Further lines, results first:

Row | IC50 (human WT TYK2) [nM] | IC50 (mouse WT TYK2) [nM] | Compound
10 |  | 1620 | C[C@@H]1[C@@H]2CN(c3nc(Nc4cnn(CCO)c4)ncc3F)C[C@]12NC(=O)[C@@H]1C[C@H]1C#N
11 |  | 1070 | Cn1cc(Nc2nccc(N3CC4CCC(C3)N4C(=O)C3CC3)n2)cn1
12 | 20 | 495 | CNC(=O)c1ncc(Nc2nccc(N3CC4CCC(C3)N4C(=O)[C@@H]3CC3(F)F)n2)cc1C
13 |  | 474 | O=C(N[C@@]12C[C@@H]1CN(c1nc(Nc3cnn(CCO)c3)ncc1Cl)C2)C1CC1
14 |  | 972 | CCNC(=O)N1C2CCC1CN(c1ccnc(Nc3cnn(C)c3)n1)C2
